Molecular target: PI3K (Homo sapiens, UniProt P42336)
Experiment: Fluorescence polarization assay for PI3K;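 further: PI3K kinase reaction on PIP2 with ATP, 30-60 min, product sensed by GST-GRP with red probe in fluorescence polarization (mP), controls without enzyme and at zero time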
Format: biochemical
Conditions: read-out: PI3Kα IC50

By UniProt entry, the sequences of proteins in these tests, tags left out.
UniProt P42336, whole entry: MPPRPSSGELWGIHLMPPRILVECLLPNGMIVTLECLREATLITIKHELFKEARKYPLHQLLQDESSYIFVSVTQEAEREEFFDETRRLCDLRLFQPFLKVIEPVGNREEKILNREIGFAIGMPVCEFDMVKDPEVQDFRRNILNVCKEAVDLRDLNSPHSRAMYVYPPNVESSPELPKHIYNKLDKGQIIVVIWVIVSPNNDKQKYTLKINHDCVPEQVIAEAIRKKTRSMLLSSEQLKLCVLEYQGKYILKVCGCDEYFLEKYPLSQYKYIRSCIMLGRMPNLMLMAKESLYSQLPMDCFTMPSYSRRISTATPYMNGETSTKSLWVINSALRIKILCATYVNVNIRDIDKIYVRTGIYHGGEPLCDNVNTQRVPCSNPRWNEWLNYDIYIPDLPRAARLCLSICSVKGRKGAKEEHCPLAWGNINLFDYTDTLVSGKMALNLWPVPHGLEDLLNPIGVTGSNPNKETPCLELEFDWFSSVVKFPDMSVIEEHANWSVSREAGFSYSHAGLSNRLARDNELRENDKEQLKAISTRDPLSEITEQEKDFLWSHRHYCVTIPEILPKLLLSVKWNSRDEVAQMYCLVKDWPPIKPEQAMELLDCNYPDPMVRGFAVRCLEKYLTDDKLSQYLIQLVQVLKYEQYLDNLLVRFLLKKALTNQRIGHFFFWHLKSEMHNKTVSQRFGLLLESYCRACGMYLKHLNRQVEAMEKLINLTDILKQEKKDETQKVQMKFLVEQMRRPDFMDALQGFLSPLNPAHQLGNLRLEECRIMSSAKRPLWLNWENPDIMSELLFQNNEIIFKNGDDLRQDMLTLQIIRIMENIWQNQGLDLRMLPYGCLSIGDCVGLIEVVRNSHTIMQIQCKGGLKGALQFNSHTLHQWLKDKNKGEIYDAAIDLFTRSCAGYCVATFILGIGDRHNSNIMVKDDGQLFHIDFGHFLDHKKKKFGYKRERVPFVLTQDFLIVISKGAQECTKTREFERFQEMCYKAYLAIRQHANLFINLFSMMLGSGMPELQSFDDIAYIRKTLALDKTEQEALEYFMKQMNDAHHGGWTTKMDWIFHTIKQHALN

4-(4-morpholin-4-yl-1-phenyl-1H-pyrazolo[3,4-d]pyrimidin-6-yl)aniline [Example 10]
IC50: 69 nM
